Laboratory results reported in ChEMBL document CHEMBL3351542, “Nonpeptide small molecule agonist and antagonist original leads for neuropeptide FF1 and FF2 receptors” (J Med Chem, 2014).

By UniProt entry, the sequences of proteins in these tests, tags left out. Where a name states a change or a piece, a line headed by the entry shows the natural chain unless it says otherwise.
UniProt P35372, whole entry, looked up: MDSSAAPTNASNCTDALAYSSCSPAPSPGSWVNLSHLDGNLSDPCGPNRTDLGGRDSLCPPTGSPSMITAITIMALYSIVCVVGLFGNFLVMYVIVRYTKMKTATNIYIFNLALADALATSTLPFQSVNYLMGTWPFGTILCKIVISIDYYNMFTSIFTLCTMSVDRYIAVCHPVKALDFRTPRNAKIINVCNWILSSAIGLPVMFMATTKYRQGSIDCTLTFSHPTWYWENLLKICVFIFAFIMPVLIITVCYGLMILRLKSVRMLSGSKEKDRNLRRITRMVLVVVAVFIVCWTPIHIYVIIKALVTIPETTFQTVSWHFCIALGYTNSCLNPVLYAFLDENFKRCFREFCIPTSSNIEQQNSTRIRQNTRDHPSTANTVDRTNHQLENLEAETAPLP
UniProt P41143, whole entry, looked up: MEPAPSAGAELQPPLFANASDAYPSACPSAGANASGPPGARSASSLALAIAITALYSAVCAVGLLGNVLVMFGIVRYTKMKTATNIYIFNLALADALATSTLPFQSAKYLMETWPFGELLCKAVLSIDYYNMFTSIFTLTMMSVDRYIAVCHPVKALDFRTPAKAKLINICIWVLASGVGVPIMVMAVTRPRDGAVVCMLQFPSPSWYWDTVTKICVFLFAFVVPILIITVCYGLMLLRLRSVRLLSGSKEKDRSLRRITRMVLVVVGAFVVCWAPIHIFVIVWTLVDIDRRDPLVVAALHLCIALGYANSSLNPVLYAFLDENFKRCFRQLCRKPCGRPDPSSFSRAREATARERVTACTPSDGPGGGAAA
UniProt P41145: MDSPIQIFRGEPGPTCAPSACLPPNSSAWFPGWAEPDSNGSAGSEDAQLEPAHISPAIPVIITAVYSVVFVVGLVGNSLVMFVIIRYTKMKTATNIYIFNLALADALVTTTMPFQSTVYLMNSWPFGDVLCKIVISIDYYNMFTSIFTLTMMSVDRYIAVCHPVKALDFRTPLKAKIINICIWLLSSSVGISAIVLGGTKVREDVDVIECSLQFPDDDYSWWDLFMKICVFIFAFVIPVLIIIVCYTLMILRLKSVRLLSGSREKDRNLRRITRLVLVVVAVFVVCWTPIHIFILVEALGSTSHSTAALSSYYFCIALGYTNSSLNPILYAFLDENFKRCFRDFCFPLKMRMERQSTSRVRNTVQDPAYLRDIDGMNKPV

Assays:
Mu-type opioid receptor = Mu-type opioid receptor (Homo sapiens, UniProt P35372); experiment: Displacement of [3H]diprenorphine from human MOR expressed in African green monkey COS-1 cells after 1 hr
[1] = molecular target: Delta-type opioid receptor (Homo sapiens, UniProt P41143); experiment: Displacement of [3H]diprenorphine from human DOR expressed in African green monkey COS-1 cells after 1 hr
[2] = molecular target: Kappa-type opioid receptor (Homo sapiens, UniProt P41145); experiment: Displacement of [3H]diprenorphine from human KOR expressed in CHO cells after 1 hr

Measured: Ki

CC(=N)NCCC[C@H](NC(=O)C12CC3CC(CC(C3)C1)C2)C(=O)N[C@@H](Cc1ccccc1)C(N)=O
> 5 µM: Mu-type opioid receptor | [1] | [2]
